Reference: US20180273626A1

Molecular target: IgE-Fc3-4:FcεRIα complex (human) (UniProt P12319)
Assay: SPR

Kd: 0.311 nM
Substance: omalizumab
